Consider 4 compounds from patent publication US20220135538A1, “P300/CBP HAT INHIBITORS AND METHODS FOR THEIR USE” (Constellation Pharmaceuticals, Inc., priority 2019, published 2022).

The chains behind the UniProt entries cited, without tags or fusion partners. Residues count along the entry.
UniProt Q09472, 1287-1666 limits assumed: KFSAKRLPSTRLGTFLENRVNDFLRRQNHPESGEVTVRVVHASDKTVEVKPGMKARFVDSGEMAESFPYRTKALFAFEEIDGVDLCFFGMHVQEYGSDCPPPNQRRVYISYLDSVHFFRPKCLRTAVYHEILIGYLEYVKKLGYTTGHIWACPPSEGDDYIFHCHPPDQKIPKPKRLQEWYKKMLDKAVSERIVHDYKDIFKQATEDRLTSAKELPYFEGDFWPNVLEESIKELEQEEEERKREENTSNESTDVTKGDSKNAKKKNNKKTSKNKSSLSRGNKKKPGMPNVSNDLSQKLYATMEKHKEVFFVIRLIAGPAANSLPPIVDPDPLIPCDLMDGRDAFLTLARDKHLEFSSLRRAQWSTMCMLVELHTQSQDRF
UniProt Q09472, whole entry: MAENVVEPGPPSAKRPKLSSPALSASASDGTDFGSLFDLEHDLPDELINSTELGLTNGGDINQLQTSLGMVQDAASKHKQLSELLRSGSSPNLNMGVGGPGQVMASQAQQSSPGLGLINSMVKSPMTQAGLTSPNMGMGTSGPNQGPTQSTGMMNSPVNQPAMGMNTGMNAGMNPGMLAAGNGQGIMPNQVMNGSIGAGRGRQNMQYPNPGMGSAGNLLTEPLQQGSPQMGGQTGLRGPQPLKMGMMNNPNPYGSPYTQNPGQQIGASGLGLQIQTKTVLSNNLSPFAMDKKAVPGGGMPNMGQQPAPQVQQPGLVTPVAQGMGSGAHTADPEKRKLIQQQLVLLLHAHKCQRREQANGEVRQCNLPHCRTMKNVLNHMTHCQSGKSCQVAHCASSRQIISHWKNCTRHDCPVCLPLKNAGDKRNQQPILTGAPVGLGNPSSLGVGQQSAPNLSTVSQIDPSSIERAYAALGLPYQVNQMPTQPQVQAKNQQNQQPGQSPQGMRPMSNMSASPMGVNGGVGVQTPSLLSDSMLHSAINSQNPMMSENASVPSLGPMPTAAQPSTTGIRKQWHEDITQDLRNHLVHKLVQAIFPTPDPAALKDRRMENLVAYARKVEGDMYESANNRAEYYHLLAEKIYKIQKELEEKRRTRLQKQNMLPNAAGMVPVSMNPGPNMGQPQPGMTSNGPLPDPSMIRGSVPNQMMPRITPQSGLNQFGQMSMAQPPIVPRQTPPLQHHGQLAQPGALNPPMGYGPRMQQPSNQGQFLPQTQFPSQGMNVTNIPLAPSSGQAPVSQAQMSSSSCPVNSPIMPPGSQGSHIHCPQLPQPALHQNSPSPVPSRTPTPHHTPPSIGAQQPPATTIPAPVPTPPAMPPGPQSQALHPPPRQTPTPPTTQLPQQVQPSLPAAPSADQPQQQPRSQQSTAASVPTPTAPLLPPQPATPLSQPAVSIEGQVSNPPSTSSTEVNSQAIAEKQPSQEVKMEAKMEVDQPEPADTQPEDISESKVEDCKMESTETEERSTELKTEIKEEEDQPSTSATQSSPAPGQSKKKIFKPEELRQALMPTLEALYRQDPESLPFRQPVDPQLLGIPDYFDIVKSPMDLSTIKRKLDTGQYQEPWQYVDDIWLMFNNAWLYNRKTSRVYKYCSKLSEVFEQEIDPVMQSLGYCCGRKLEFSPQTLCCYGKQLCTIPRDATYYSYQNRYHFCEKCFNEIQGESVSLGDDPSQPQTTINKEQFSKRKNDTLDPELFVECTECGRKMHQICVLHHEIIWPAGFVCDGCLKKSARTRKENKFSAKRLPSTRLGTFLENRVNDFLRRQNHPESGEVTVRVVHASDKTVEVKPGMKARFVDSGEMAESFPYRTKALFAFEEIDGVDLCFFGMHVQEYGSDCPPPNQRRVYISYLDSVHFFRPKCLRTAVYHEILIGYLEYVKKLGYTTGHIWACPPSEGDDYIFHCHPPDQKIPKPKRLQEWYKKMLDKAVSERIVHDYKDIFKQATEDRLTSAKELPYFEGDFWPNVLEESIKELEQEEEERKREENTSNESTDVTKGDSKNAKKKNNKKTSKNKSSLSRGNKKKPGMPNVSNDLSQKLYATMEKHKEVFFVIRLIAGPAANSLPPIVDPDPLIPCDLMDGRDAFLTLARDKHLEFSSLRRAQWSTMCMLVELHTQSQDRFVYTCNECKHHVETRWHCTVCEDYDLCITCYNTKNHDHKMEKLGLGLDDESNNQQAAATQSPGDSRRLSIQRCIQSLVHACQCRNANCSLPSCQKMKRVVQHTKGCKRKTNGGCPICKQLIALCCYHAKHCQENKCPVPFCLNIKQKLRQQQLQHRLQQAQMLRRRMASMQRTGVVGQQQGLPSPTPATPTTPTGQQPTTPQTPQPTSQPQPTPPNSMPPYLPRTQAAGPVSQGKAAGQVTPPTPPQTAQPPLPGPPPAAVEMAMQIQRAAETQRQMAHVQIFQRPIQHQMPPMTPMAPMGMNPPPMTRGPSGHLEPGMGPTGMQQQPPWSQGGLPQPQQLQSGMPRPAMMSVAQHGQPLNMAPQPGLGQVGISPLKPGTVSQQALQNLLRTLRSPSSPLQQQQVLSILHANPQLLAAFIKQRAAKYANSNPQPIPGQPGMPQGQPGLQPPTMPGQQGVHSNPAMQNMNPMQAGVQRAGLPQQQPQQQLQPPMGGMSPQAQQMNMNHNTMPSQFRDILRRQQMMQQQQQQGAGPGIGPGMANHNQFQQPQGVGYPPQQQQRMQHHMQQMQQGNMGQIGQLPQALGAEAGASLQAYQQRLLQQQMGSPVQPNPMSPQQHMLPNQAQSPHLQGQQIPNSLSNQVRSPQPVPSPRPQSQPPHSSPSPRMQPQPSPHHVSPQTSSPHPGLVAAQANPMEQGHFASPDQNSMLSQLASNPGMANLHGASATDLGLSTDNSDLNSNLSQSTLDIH

Molecules are shown by their SMILES. Where only a bound is given, the exact number is not on record here.

Assay [1] has as its target p300 HAT domain (residues 1287-1666) (Homo sapiens, UniProt Q09472). Briefly: P300 HAT SPA assay (scintillation proximity, acetylation of biotinylated H3(1-21) peptide). As to conditions: read-out: P300 HAT SPA IC50; 6 nM p300-HAT domain; average of at least 2 replicate titrations. The procedure: The activity of the compounds described herein as p300/CBP HAT inhibitors may be readily determined using a scintillation proximity assay (SPA) methodology (Udenfriend, S.; Gerber, L.; Nelson, N. Scintillation Proximity Assay: A Sensitive and Continuous Isotopic Method for Monitoring Ligand/Receptor and Antigen/Antibody Interactions. Anal. Biochem. 1987, 161, 494-500).
In a typical experiment the p300 HAT inhibitory activity of the compounds described herein was determined in accordance with the following experimental method.
The p300 HAT domain (residues 1287-1666) was expressed and purified with an N-terminal His tag from Escherichia coli cells. The expressed protein was purified by Ni2+affinity, followed by anion exchange chromatography. Appropriate fractions were pooled and buffer exchanged into 20 mM Hepes pH 7.5, 150 mM NaCl, and 1 mM TCEP.
(§1) Compounds of interest solubilized in DMSO were stamped in a Greiner black 384-well plate in a 10-point duplicate dose response using an Echo 550 (Labcyte). p300-HAT domain purified in-house (aa 1287-1666) was diluted to 6 nM in reaction buffer (50 mM Tris pH 8.0, 100 mM NaCl, 1 mM DTT, 0.069 mM Brij-35, 0.1 mM EDTA, 0.1 mg/mL BSA), combined with 4.14 μM AcCoA (Sigma-Aldrich) and 0.46 μM ^3H-AcCoA (PerkinElmer), and 12.5 μL added to each well and incubated for 30 min at RT. Reactions were initiated with 12.5 μL 2 μM biotinylated H3(1-21) peptide (New England Peptide) and run for 1 hr at RT, then quenched with 20 μL stop solution (200 mM Tris pH 8.0, 200 mM EDTA, 2M NaCl, 160 μM anacardic acid). 35 μL of the reaction volume was transferred to a 384-well streptavidin FlashPlate (PerkinElmer) using a Bravo liquid handler (Velocity 11) and incubated for 1.5 hr at RT. Plates were aspirated, washed with 95 μL wash buffer (15 mM Tris pH 8.5, 0.069 μM Brij-35), aspirated, sealed, and scintillation counts read on a Topcount (PerkinElmer). Data were analyzed in Genedata to determine inhibitor IC50 values.
For orientation: SPA uses beads or plates that emit light when radiolabelled molecules are held near them.

Assay [2] relates to acetylation of chromatin at H3K18 in HCT-116 cells. In words: H3K18Ac MSD cellular assay. The following applies: read-out: H3K18Ac MSD EC50, 2 hr treatment. Here is the method: Select compounds were also evaluated in a H3K18Ac MSD cellular assay that measures the ability of compounds to inhibit the acetylation of chromatin at H3K18, a process catalyzed by p300 and CBP. In a typical experiment the p300 HAT inhibitory activity inside cells of the compounds described herein was determined in accordance with the following experimental method. 20 k HCT-116 cells per well are plated in 75 μL RPMI+10% FBS media the night before treatment. Compounds plated in DMSO at 4× final concentration are resuspended in 30 μL RPMI+10% FBS, then 25 μL is combined with corresponding wells containing cells. Treated cells are incubated for 2 hr at 37° C., then lysed in 500 μL final volume and frozen at −80° C. MSD plates (Meso Scale Discovery) are coated overnight at 4° C. with 60 μL 1:500 α-total histone antibody (Millipore MAB3422) in PBS. Plates are then blocked with 5% BSA in TBST shaking at RT for 1 hr, washed, and 30 μL lysate added to each well for 2 hr shaking at RT. Plates are washed and 25 μL 1:216 α-H3K18ac antibody (CST 9675) in PBS added, then incubated for 1 hr shaking at RT. […] Plates are washed once more, then 150 μL 1× Read Buffer (MSD #R92TD-3) is added to all wells and read on MSD SECTOR Imager 2400 using the conventional read setup.

For a further assay, the target named is full length p300 (Homo sapiens, UniProt Q09472). In words: Full length p300 SPA assay. As to conditions: read-out: FL P300 IC50; 6 nM purified full length p300. Here is the method:
as §1
The full length p300 SPA assay was run following the same protocol as p300 HAT SPA assay, but used 6 nM purified full length p300 (purchased from Active Motif) in place of the purified p300-HAT domain.

In general, IC50 refers to the midpoint of a concentration-inhibition curve. Consider `C[C@H](CNC(C(=O)Nc1ccc(OC2CNC2)cn1)c1ccccc1)c1ccc(C#N)cc1` (single isomer, unassigned) [26 Isomer 1], for which, in assay [1], the IC50 was 650 nM.

As for `C[C@H](CNC(C(=O)Nc1ccc(OC2CN(C(=O)CO)C2)cn1)c1ccccc1)c1ccc(C#N)cc1` (single isomer, unassigned) [27 Isomer 1], the IC50 in assay [1] came out at 247 nM.

As to `C[C@H](CNC(C(=O)Nc1ccc(OC2CN(C(=O)CO)C2)cn1)c1ccccc1)c1ccc(C#N)cc1` (single isomer, unassigned) [27 Isomer 2], the IC50 in assay [1] is more than 1000 nM.

Broadly, the EC50 is the concentration that produces a half-maximal response. For `C[C@H](CNC(C(=O)Nc1ccc(OC2CNC2)cn1)c1ccccc1)c1ccc(C#N)cc1` (single isomer, unassigned) [26 Isomer 2], in assay [2], the EC50 came out at 182 nM. For the same compound, the results for the IC50 (in assay [1]; on full length p300) were 14 nM and 1.49 nM, respectively.
